From ChEMBL document CHEMBL1135802, “Pyrrolo[1,3]benzothiazepine-based atypical antipsychotic agents. Synthesis, structure-activity relationship, molecular modeling, and biological studies” (J Med Chem, 2002) come the findings set out here.

Protein sequences, listed by entry. Tags and fused reporters are not part of them.
UniProt P18901, whole entry: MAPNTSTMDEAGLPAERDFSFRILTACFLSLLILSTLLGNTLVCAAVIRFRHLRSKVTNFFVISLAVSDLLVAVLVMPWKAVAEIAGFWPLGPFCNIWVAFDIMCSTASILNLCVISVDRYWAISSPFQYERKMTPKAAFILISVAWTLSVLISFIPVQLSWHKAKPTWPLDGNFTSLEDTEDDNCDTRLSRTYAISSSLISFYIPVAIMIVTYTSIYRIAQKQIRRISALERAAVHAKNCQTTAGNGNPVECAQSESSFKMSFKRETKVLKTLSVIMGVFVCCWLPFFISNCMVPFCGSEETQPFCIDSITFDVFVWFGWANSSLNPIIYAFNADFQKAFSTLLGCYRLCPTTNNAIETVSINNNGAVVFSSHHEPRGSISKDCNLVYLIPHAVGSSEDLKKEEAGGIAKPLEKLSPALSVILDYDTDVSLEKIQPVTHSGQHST
UniProt P19020, whole entry: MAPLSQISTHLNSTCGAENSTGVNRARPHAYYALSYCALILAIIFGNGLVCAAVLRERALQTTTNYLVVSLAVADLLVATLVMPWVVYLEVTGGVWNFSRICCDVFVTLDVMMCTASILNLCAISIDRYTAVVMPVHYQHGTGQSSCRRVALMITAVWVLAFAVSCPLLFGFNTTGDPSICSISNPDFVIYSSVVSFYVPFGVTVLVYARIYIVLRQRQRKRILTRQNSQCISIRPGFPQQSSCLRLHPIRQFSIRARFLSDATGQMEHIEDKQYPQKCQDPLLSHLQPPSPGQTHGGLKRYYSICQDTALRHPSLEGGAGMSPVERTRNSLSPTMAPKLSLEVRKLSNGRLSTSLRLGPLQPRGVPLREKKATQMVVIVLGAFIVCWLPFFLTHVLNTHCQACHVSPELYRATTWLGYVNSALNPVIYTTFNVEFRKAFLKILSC
UniProt P14842, whole entry: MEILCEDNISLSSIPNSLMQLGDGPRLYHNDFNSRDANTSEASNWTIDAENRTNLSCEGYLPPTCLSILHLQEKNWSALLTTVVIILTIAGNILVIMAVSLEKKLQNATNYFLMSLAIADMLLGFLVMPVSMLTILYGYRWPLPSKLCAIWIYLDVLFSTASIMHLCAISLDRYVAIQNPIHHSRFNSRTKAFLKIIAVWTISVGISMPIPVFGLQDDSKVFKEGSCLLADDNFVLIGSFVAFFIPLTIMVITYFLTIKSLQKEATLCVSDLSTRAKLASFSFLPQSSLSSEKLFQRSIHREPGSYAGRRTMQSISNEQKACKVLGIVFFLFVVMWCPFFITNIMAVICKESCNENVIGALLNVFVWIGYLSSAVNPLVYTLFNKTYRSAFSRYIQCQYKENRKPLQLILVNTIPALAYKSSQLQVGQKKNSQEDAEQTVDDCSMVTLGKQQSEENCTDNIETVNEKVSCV

One assay concerns the target D(1A) dopamine receptor (Rattus norvegicus, UniProt P18901).
A further assay addresses D(3) dopamine receptor (Rattus norvegicus, UniProt P19020). On the set-up: species or system Tissue.
Assay [1] deals with 5-hydroxytryptamine receptor 2A (Rattus norvegicus, UniProt P14842).

The pKi is −log10 of the Ki, conventionally taken in molar units. Read a low pKi as a large Ki.

pKi: −log10 of the molar value.

`CN1CCN([C@@H]2Cn3cccc3Sc3ccc(Cl)cc32)CC1`: the pKi on D(1A) dopamine receptor was 7.79.
For the compound `CN1CCN(C2Cn3cccc3Sc3ccc(Br)cc32)CC1` (racemic), on D(3) dopamine receptor, the pKi is 8.44.
`CN1CCN(C2Cn3cccc3Sc3ccc(F)cc32)CC1` (racemic) had a pKi in assay [1] of 8.29.
Compound `CN1CCN(C2Cn3cccc3Sc3ccccc32)CC1` (racemic) gave a negative logarithm of the Ki (pKi) at D(1A) dopamine receptor of 6.67.
